Reference: paper PMC9871955, “High-throughput screening of SARS-CoV-2 main and papain-like protease inhibitors” (Protein & Cell, 2022)

Target: SARS-CoV-2 M^pro (Severe acute respiratory syndrome coronavirus 2, UniProt P0DTD1)
Assay: biochemical
Type: biochemical

| SMILES | IC50 (IC50 (μM) at S/KM 2) [µM] | IC50 (IC50 (μM) at S/KM 1/2) [µM] |
| --- | --- | --- |
| COc1ccc(-n2c(CNC(=O)COc3ccc(Cl)cc3Cl)n[nH]c2=S)cc1 [JK0109-B011] | 3.37 ± 0.84 |  |
| O=C(NCc1n[nH]c(=S)n1-c1ccc(Br)cc1)c1ccc(Cl)cc1Cl [JK0108-D008] |  | 1.7 ± 0.93 |
| COc1ccc(-n2c(S)nnc2CNC(=O)c2cc(OC)c(OC)c(OC)c2)cc1 [JK0109-C011] | 17.8 ± 3.25 |  |
